Each structure is given as a SMILES string.

Protein sequences, listed by entry. Tags and fused reporters are not part of them. Lines headed by an entry give the natural chain unless they say otherwise; changes in a name come on top.
UniProt P28843: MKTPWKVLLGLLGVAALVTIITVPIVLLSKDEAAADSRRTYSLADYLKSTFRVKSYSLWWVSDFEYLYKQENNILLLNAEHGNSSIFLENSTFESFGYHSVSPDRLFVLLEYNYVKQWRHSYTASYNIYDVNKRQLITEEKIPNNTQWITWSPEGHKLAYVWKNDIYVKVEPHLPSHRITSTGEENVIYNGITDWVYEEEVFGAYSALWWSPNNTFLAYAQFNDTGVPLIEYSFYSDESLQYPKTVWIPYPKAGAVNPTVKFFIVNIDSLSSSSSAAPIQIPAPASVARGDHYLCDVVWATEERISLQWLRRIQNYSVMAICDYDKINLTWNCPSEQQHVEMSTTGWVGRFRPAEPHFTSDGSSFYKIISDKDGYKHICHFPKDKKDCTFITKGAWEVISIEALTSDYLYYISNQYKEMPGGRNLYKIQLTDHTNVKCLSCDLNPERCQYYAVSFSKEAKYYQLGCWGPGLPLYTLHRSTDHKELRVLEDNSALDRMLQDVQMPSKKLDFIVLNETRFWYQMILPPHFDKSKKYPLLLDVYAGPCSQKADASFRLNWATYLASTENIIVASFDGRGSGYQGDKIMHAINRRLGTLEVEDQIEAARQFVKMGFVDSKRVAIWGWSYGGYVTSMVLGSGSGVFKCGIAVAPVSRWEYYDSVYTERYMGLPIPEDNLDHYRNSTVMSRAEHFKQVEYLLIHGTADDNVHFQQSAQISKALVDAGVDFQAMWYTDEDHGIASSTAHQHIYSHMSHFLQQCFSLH

The experiment addresses Dipeptidyl peptidase 4 (Mus musculus, UniProt P28843). The experiment can be described thus: Inhibition of DPP4 in C57BL/6 mouse serum pre-incubated for 5 mins followed by Gly-Pro-7-AMC substrate addition by fluorescence based assay. It is filed as cell-free.

As usually defined, the IC50 is the concentration that gives 50% inhibition. Lower therefore signals greater potency in that assay. The compound `N[C@@H](CC(=O)N1CCn2c(nnc2C(F)(F)F)C1)Cc1cc(F)c(F)cc1F` [SITAGLIPTIN] returned an IC50 of 14.7 nM.

The record behind these values is ChEMBL document CHEMBL4334524, “Discovery of Highly Polar β-Homophenylalanine Derivatives as Nonsystemic Intestine-Targeted Dipeptidyl Peptidase IV Inhibitors” (J Med Chem, 2019).
